## Binding of CDR-mutated scFvs to a peptide of the spike HR2 region

Antigen: PDVDLGDISGINAS, a 14-residue peptide of the SARS-CoV-2 spike HR2 region.

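Phage display of a naive human antibody library on the peptide gave the parent. These sequences belong to a second round, designed from the earlier measurements on random variants of the parent. Several design methods are mixed in this list. In AlphaSeq, yeast of one mating type display the scFv and yeast of the other type display the target. Mating (16 h, 30 °C) was followed by selection of diploids and sequencing of their barcodes. Each replicate has its own calibration line, from reference interactions of the BCL2 family. Mating was done six times.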

The variants keep the light chain, the linker and the frameworks of Ab-14 (scFv order VH, a 15-residue (Gly4Ser)3 linker, VL).
VH: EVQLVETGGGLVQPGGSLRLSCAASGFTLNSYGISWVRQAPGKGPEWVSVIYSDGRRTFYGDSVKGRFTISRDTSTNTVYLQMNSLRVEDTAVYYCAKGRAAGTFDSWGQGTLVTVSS
VL: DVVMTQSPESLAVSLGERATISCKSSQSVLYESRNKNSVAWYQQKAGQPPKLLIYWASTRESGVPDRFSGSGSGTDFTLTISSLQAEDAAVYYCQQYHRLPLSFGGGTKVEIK

Each variant is given by its three heavy chain CDRs, as the data file delimits them; those of the parent are GFTLNSYGIS, VIYSDGRRTFYGDSVK, GRAAGTFDS.
Variants here have more than six changes.
Kd is apparent (estimated from mating counts) and averaged on the log scale over replicates with a signal. Smaller is tighter.
Where no diploid with the target was found in any replicate, the entry reads "no signal": below detection, most likely a poor binder, though not proof of it.
The range of this assay differs from that of the first round, and the authors advise against merging the two.

With GFQLDEYGIS / VIYADGRRTFYQDSVK / GNVAGTFDV the result was 140 pM (6 of 6 replicates; controls 0 of 18). The variant GFDLNEYGIS / VIYADGKRTMYADSVK / GENAGTFDV showed 1.2 nM (6 of 6 replicates; controls 0 of 18). For GFDLNEYGIS / VIYADGRRTFYIDSVK / GEEAGTFNV, the assay gave 710 pM (6 of 6 replicates; controls 0 of 18). The variant GFDLDEYGIS / VIYADGVRTAYSDSVK / GQNAGTFDV showed 93 pM (6 of 6 replicates; controls 0 of 18). For GFNLNEYGIS / VIYADGRRTAYTDDVK / GEVAGTFDL, the assay gave 290 pM (6 of 6 replicates; controls 1 of 18). The variant GFDLNEYGIS / VIYADGKRTFYSDSVK / GNAGGTFDL gave 6.4 nM (6 of 6 replicates; controls 1 of 18). The variant GFNLDEYGIS / VIYADGRRTFYADSVK / GQQAGTFDM showed 6.6 nM (6 of 6 replicates; controls 0 of 18). For GFTLNDYGAS / VIYHDFRRTFYADSVK / GRAALTIIS, the assay gave no signal (0 of 6 replicates; controls 0 of 18).

With GFSLDEYGIS / VIYADGTRTMYIDNVK / GLIGMFCDI the result was 7.8 nM (1 of 6 replicates; controls 0 of 18). For GFDLDEYGIS / VIYADGLRTAYADSVK / GNNAGTFDV, the assay gave 220 pM (6 of 6 replicates; controls 0 of 18). For GFDLEDYGIS / VIYADGKRKAYAQKFK / GRIGGTFVD, the assay gave 3.6 nM (2 of 6 replicates; controls 0 of 18). The variant GFDLDEYGIS / VIYADGIRTAYADSVK / GNVAGTFDV showed 520 pM (6 of 6 replicates; controls 0 of 18). With GFDLNEYGIS / VIYADGRRTFYTDNVK / GQNAGTFDN the result was 300 pM (6 of 6 replicates; controls 1 of 18). For GFGLNEYGIS / VIYADGVRTAYLQNVK / GIVTGFDQY, the assay gave no signal (0 of 6 replicates; controls 0 of 18). For GEDIDEYGIS / VIYADGQRTAYDEAVK / GTIAGSFFH, the assay gave no signal (0 of 6 replicates; controls 0 of 18). With GFDLNEYGIS / VIYADGQRTAYADSVK / GEIAGTFDV the result was 450 pM (6 of 6 replicates; controls 0 of 18).

For GFDLNEYGIS / VIYADGRRTFYADSVK / GEAAGTFTL, the assay gave no signal (0 of 6 replicates; controls 0 of 18). For GFDLNEYGIH / VIYADGIRTVVSNDVK / GNVAGTIDV, the assay gave 160 pM (6 of 6 replicates; controls 0 of 18). The variant GFDLNEYGIS / VIYADGMRKAYADSVK / GNQAGTFDI showed 160 pM (6 of 6 replicates; controls 0 of 18). The variant GFDLNEYGIS / VIYADGRRTAYSDSVK / GETAGTFDQ showed 3.0 nM (6 of 6 replicates; controls 0 of 18). The variant GFDLNEYGIS / VIYADGRRTAYSDSVK / GEAGGTFDA gave 1.0 nM (6 of 6 replicates; controls 0 of 18). The variant GFQLDEYGIS / VIYADGMRTAYADSFK / GNKSTIIGI showed no signal (0 of 6 replicates; controls 0 of 18). For GFDLNEYGIS / VIYADGLRTAYSDSVK / GNVAGTFDM, the assay gave 340 pM (6 of 6 replicates; controls 0 of 18). With GFDLNEYGIS / VIYADGMRTAYADTVK / GQNAGTFDV the result was 810 pM (6 of 6 replicates; controls 0 of 18).

With GFDLNEYGIS / VIYADGRRTFYADSVK / GKVAGTFVS the result was 880 pM (6 of 6 replicates; controls 0 of 18). The variant GFDLNEYGIS / VIYADGRRTYYVDSVK / GVNAGTFDV showed 1.2 nM (6 of 6 replicates; controls 0 of 18). The variant GFDLDEYGIS / VIYADGMRTAYSDKVK / GQNAGTFDV gave 280 pM (6 of 6 replicates; controls 0 of 18). With KENIDEYGIS / VIYADGRRTAYTQDVK / GQNGGQIDV the result was 710 nM (3 of 6 replicates; controls 2 of 18). The variant GFDLNEYGIS / VIYADGRRTAYQDSVK / GQVAGTFDS showed 5.8 nM (6 of 6 replicates; controls 0 of 18). For GFDLNEYGIS / VIYADGMRTAYADSVK / GHNAGTFDI, the assay gave 910 pM (6 of 6 replicates; controls 0 of 18). The variant GFDLEEYGIS / VIYADGKRTAYKNTVK / GSFMIDFVV gave no signal (0 of 6 replicates; controls 1 of 18). The variant GFDLNEYGIS / VIYADGRRTAYSDSVK / GEAAGTFDK showed 250 pM (6 of 6 replicates; controls 2 of 18).

With GFDLNEYGIS / VIYADGVRQAYADSVK / GENAGTFDL the result was 21 nM (5 of 6 replicates; controls 0 of 18). For GFDLNEYGIS / VIYADGMRTFYTDSVK / GEEAGTFDS, the assay gave 1.5 nM (6 of 6 replicates; controls 0 of 18). The variant GQSLEEYGIS / VIYADGFRTQYKNSVK / GKNAFDITV showed no signal (0 of 6 replicates; controls 1 of 18). The variant GFPLDEYGIS / VIYADGERTHYSNSVK / GTIGGTFFQ gave 110 nM (3 of 6 replicates; controls 0 of 18). With GFDLNEYGIS / VIYADGMRTVYADSVK / GEVAGTFDL the result was 1.6 nM (6 of 6 replicates; controls 1 of 18). With GFDLNEYGIS / VIYADGVRSFYADSVK / GENAGTFDV the result was 750 pM (4 of 6 replicates; controls 0 of 18). For GMDLGEYGIS / VIYADGERASYTNNFK / GVSAGTLTV, the assay gave 6.8 nM (1 of 6 replicates; controls 0 of 18). For GMDLNEYGIS / VIYADGRRTSYINQVK / GKQSVIVGH, the assay gave no signal (0 of 6 replicates; controls 0 of 18).

Extract of 4 entries:

| CDR-H1 | CDR-H2 | CDR-H3 | apparent Kd | seen in | control signals |
|---|---|---|---|---|---|
| GFDLNEYGIS | VIYADGLRTAYSDSVK | GNVAGTFDM | 340 pM | 6/6 | 0/18 |
| GFQLDEYGIS | VIYADGMRTAYADSFK | GNKSTIIGI | no signal | 0/6 | 0/18 |
| GFDLDEYGIS | VIYADGIRTAYADSVK | GNVAGTFDV | 520 pM | 6/6 | 0/18 |
| GFDLEDYGIS | VIYADGKRKAYAQKFK | GRIGGTFVD | 3.6 nM | 2/6 | 0/18 |

The authors averaged sequences with at least three values out of six and counted those with two or fewer as poor binders.
Empty control strains, which show no peptide, gave a signal in 1% of pairings with all heavy chain designs; the median was 120 nM and 95% of these signals were weaker than 7.0 nM. No background was subtracted. The control count says in how many pairings with the empty strains this scFv gave a signal.

The measurements come from Li et al. 2023 (doi:10.1038/s41467-023-39022-2) through the FLAb antibody collection.